Experimental data as given in publication PMC8615155, “Chlorophyllin Inhibits Mammalian Thioredoxin Reductase 1 and Triggers Cancer Cell Death” (Antioxidants, 2021).

What was measured:
wild type TrxR1 = target: T1, wild type TrxR1 (Rattus norvegicus, UniProt O89049); experiment: TrxR1 DTNB reduction assay
T1 sequence (O89049 1-499): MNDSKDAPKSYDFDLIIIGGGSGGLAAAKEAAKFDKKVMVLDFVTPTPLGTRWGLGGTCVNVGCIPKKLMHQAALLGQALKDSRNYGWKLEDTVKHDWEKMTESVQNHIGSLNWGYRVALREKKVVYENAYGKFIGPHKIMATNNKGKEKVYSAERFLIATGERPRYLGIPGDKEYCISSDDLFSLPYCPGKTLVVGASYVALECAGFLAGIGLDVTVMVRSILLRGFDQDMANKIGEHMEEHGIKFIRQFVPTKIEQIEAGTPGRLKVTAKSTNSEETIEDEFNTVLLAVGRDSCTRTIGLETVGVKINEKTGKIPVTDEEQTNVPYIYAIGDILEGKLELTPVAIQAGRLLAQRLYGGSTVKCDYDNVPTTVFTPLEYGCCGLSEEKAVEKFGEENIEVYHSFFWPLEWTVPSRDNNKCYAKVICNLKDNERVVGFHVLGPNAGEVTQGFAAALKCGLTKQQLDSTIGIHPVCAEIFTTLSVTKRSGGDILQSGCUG

TrxR1 = target: T2, TrxR1 (Rattus norvegicus, UniProt O89049); conditions: read-out: IC50 in Trx-coupled insulin reduction; NADPH-reduced TrxR incubated 30 min
T2 sequence (O89049 1-499): T1 sequence (O89049 1-499)

**Q.** With “Sodium copper chlorophyll [chlorophyllin]” as the substance, how does the “Time dependence of TrxR1 inhibition” value (wild type TrxR1; NADPH pre-reduced TrxR1, DTNB as substrate) read?
**A.** time-dependent inhibition

**Q.** What about the “Reversibility of TrxR1 inhibition after desalting” value (wild type TrxR1; NAP-5 column desalting after incubation) of the same substance?
**A.** irreversible

**Q.** What about the “Sensitivity of oxidized TrxR1 to inhibition” value (wild type TrxR1; TrxR1 not pre-reduced by NADPH, 1 h incubation) of the same substance?
**A.** insensitive

**Q.** What about the “Kinact, second-order rate of inhibition of DTNB reducing activity” value (wild type TrxR1; chlorophyllin 0 to 4 µM) of the same substance?
**A.** 116 ± 8.17 M⁻¹ s⁻¹

**Q.** And the pIC50 (wild type TrxR1; read-out: IC50 on TrxR1's DTNB reducing activity, NADPH pre-reduced TrxR1, DTNB as substrate)?
**A.** 5.58

**Q.** And the pIC50 (TrxR1)?
**A.** 5.04

pIC50: −log10 of the molar value.
